Experimental data: patent US20230027592A1

Molecular target: Bovine serum albumin (bovine) (UniProt P02769)

- BSA sequence coverage after digestion (nLC-MS/MS) (% BSA sequence coverage): 90.2
Substance: Chymotrypsin protease (Sequencing Grade, Promega V106A) (from UniProt P00766) (enzyme)
